We go through 1 compound from patent US6126956A, “Subcutaneous implant” (priority 1998, dated 2000).

The conditions of series [1]: 600 μg and 1200 μg i.v. boluses.
The conditions of series [2]: more potent than morphine; cited from earlier work.

Turning to `CN1CC[C@]23c4c5ccc(O)c4O[C@H]2C(=O)CC[C@H]3[C@H]1C5` [hydromorphone], in series [1], the “time to return to baseline” value is not above 4 h. The “potency relative to morphine” value in series [2] is 6-7 times.
